Measurements taken from EP4837574A1, “USE OF DNJ OR DERIVATIVE THEREOF IN PREPARING ANTI-SENESCENCE DRUG” (dated 2026).

Key:
[1] = tested on: human umbilical vein endothelial cells (Huvec cells); assay: SA-β-Gal staining, D-galactose-induced senescence, pre-administration (Example 4); settings: 30 µM, pre-administration 24 hours, then 40 g/L D-gal 24 hours; FIG. 12
Protocol: (§1) Culture conditions for human umbilical vein endothelial cells (Huvec cells) are as follows: The Huvec cells were cultured in an ECM culture medium (SclenCell) and passaged and seeded when cultured to a density of 70% to 80% in a culture dish. The cells were washed 1 time with PBS, 0.25% trypsin (Gibco) was added for digestion for 2-3 minutes, and then an ECM culture medium was added to terminate the digestion. The cells were pipetted to be detached, collected into a 15 mL centrifuge tube, and centrifuged at 1,000 rpm for 5 minutes. The supernatant was discarded, a new ECM culture medium was added, and the cells were pipetted uniformly, seeded into a 12-well or 24-well plate (at a density of 70% to 80%), and cultured in a 5% CO2 incubator at 37°C. After cell adherence, the next operation was performed.
(§2) Working concentrations of each drug and modeling agent: The concentrations of DNJ, DNJ-1, DNJ-3a, DNJ-3b, DNJ-5a, and NMN were all 30 µM; and the concentration of the modeling agent, H2O2, was 200 µM.
(§3) The workflow for SA-β-Gal staining of the cells is as follows: For the cells cultured in a 6-well plate, a cell culture solution was sucked away, the cells were washed 1 time with PBS, and 1 mL of an SA-β-Gal staining fixative was added for fixation at room temperature for 15 minutes. For other types of culture plates, the dosages of the fixative and subsequent solutions were used in operation with reference to this ratio. The cell fixative was sucked away, and the cells were washed 3 times with PBS, for 3 minutes each time. PBS was sucked away, and 1 mL of a staining working solution was added to each well. A method for formulating the staining working solution is as follows: A β-galactosidase staining solution A (10 µL), a β-galactosidase staining solution B (10 µL), a β-galactosidase staining solution C (930 µL), and an X-Gal solution (50 µL) were used. The cells were incubated overnight at 37°C, and the 6-well plate was sealed with a parafilm or a plastic wrap to prevent evaporation. Photographing was performed for record using a 20× objective under a microfluidic live cell real-time analysis system (Thermo), cell counting was performed using ImageJ software (National Institutes of Health, v 1.8.0), and ANOVA data analysis of multiple groups (mean ± SD) was performed using Graphpad Prism software (GraphPad Software, v 9.0.0).
The anti-aging activity of drugs was detected in a stress-induced senescence model of human umbilical vein endothelial cells induced by D-galactose. A basic method refers to Example 1, with differences in the modeling method as follows: a cell senescence model was constructed by stimulation with 40 g/L D-gal for 24 hours.

[2] = tested on: SASP factors; assay: qRT-PCR of SASP factor mRNA, replicative senescence of Huvec cells by continuous passage (Example 9); settings: DNJ 24 hours; senescent cells of the 6th, 9th, and 12th generations; compared with a control group; FIG. 17
Protocol: The anti-aging activity of drugs was detected in a replicative senescence model of human umbilical vein endothelial cells induced by continuous passage. A basic method refers to Example 1, with differences in the modeling method as follows: cell passage was performed when the cells grew to a density of approximately 80%, and the cells of the 4th, 6th, 9th, and 12th generations were used for experiments. Compared with the cells of the 4th generation, the cells of the 6th, 9th, and 12th generations gradually became senescent.
Experimental operation and grouping: Passage operation was performed after the cells grew to a density of 70% to 80%. When passaged to the 4th, 6th, 9th, and 12th generations, the cells were divided into a control group and an administration group, respectively. The control group was cultured in a normal culture medium, and the administration group was added into a culture medium containing 30 µM DNJ for culture. After 24 hours, the cells were subjected to SA-β-Gal staining operation.
The activity of drugs to inhibit a senescence-associated inflammatory phenotype was detected in a stress-induced senescence model of human umbilical vein endothelial cells induced by H2O2. […]

[3] = tested on: human umbilical vein endothelial cells (Huvec cells); assay: SA-β-Gal staining, H2O2-induced senescence, simultaneous administration (Example 2); settings: 30 µM, simultaneous treatment with 200 µM H2O2 for 24 hours; FIG. 10
Protocol: as §1, §2, §3
A basic method refers to Example 1, with differences in the administration method as follows: while inducing by H2O2 and constructing a human umbilical vein endothelial cell senescence model, treatment with DNJ or its derivatives was performed separately, and the anti-aging activity of drugs was detected.

[4] = tested on: human umbilical vein endothelial cells (Huvec cells); assay: SA-β-Gal staining, H2O2-induced senescence, pre-administration (Example 1); settings: 30 µM, pre-administration 24 hours, then 200 µM H2O2 24 hours; compared with the H2O2 group; FIG. 9
Protocol: as §1
Experimental operation and grouping are as follows: Experimental grouping: A control group (Control), a modeling group (H2O2), a DNJ drug group (H2O2 + DNJ, H2O2 + DNJ-1, H2O2 + DNJ-3a, H2O2 + DNJ-3b, H2O2 + DNJ-5a), and a positive control drug group (H2O2 + NMN) were used.
as §2
Experimental operation: After the supernatant was discarded, the cells were washed 3 times with PBS, drug solutions formulated in advance with a culture medium were added, and the blank group and the modeling group were replaced with a blank culture medium without drugs. After culturing for 24 hours, the supernatant was discarded, the cells were washed 3 times with PBS, a blank culture medium was added in the blank group, and a culture medium containing 200 µM H2O2 was added in the modeling group and the administration group. After treatment for 24 hours, the cells were subjected to SA-β-Gal staining operation using a cellular senescence β-galactosidase staining kit (Beyotime, C0602).
as §3
Compared with normal cells, senescent cells have the characteristic of high expression of SA-β-Gal. In the cellular senescence β-galactosidase staining kit using X-Gal as a substrate, a deep blue product is generated under the catalysis of senescence-specific β-galactosidase, thereby determining whether the cells are senescent.

OC[C@H]1NC[C@H](O)[C@@H](O)[C@@H]1O
number of SA-β-Gal staining-positive cells [1]: significantly reduced | increase in the mRNA expression of SASP factors [2]: significantly inhibited | production of senescent cells induced by H2O2 (number of SA-β-Gal staining-positive cells) [3]: significantly reduce | increase in the number of senescent cells (SA-β-Gal staining-positive cells) [4]: significantly inhibited
